Reference: PMC6530635, “A Novel Single-Site Mutation in the Catalytic Domain of Protoporphyrinogen Oxidase IX (PPO) Confers Resistance to PPO-Inhibiting Herbicides” (Frontiers in Plant Science, 2019)

How the values were obtained:
Format in all cases: biochemical
[1] = system: recombinant Amaranthus tuberculatus PPO2 ΔG210
[2] = system: recombinant Amaranthus tuberculatus PPO2 R128L
[3] = system: recombinant Amaranthus tuberculatus PPO2 G399A

SMILES	Resistance factor ΔG210 (IC50 mutant / IC50 sensitive PPO2) [1]	Resistance factor R128L (IC50 mutant / IC50 sensitive PPO2) [2]	Resistance factor G399A (IC50 mutant / IC50 sensitive PPO2) [3]
CS(=O)(=O)NC(=O)c1cc(Oc2ccc(C(F)(F)F)cc2Cl)ccc1[N+](=O)[O-] [Fomesafen]	12315	1479	>7576
CC(C)N(C)S(=O)(=O)NC(=O)c1cc(-n2c(=O)cc(C(F)(F)F)n(C)c2=O)c(F)cc1Cl [Saflufenacil]	1455	202	570
